Experimental data from article PMC3849035 (MedChemComm, 2011).

Tests used:
[1] = tested on: HEL cells; conditions: human
[2] = tested on: MDCK cells; conditions: dog
[3] = tested on: HeLa cells; conditions: human
[4] = tested on: Vero cells; conditions: African green monkey

NC(=O)c1ncn([C@@H]2O[C@H](CO)[C@@H](O)[C@H]2O)n1 [Ribavirin, reference compound]
MCC (minimal cytotoxic concentration) [1]: >250 µM | MCC (minimal cytotoxic concentration) [2]: >100 µM | MCC (minimal cytotoxic concentration) [3]: >250 µM | MCC (minimal cytotoxic concentration) [4]: >250 µM
